Assay outcomes as filed in PubChem BioAssay.
Compounds with a hit are over-represented: about 2.3% of the library has one in this group of screens.
MC4R antag cAMP = human MC4R antagonism in cAMP assay | P32245 | MC4R-expressing cells, MTII-stimulated cAMP, LANCE TR-FRET | inhibition, % at 6.5 µM | 360,000 tested, 0.48% active;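 active means inhibition above its plate's cutoff, the mean of tested wells on that plate plus 3 SD, cut at about 29% in these data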;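 further: 0% = Melanotan II alone and 100% = Melanotan II plus saturating MCL0020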
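Material: U2OS-MC4R stable cell line | Reagent: Melanotan II challenge after compound preincubation | Doses: One concentration, 6.5 µM nominal | Incubation: 30-min compound preincubation, 1-h Melanotan II challenge, 1-h detection, room temperature | Signal: TR-FRET cAMP assay | Replicates: One well per compound, no replicates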
NRP1-CendR mod = modulators of CendR peptide binding to human neuropilin-1; O14786; FAM-RPARPAR peptide binding to NRP-1, fluorescence polarization; inhibition, % at 25 µM; 360,000 tested, 0.85% active; AID 602438;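 active means inhibition or corrected inhibition above about 18%, plus a signal ratio from 0.5 to 1.5, limit read from the data, passing the limit was not always enough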
ARFGAP1 inh = rat ARFGAP1 inhibition; 360,000 tested, 0.26% active; inhibition, % at 16.5 µM; Arfgap1-stimulated ARF1 GTP hydrolysis, GDP FP detection; Q62848;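 active means inhibition above a per-plate limit, mean inhibition of low control wells plus 3 SD, cut at about 25% in these data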;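 further: 0% = DMSO wells with enzyme and 100% = wells lacking Arfgap1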
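Repeats: one replicate per compound; assay system: rat Arfgap1 catalytic domain, aa 1-136; times: enzyme reaction 120 min at 25 °C after 20 min preincubation; detection: FP of antibody-bound GDP Alexa 633 tracer, ex 620/em 688 nm; benchmarks: high control wells lacking Arfgap1, low control full reaction with DMSO; reagent: human ARF1(Δ1-17)-GTP substrate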
UUG fidelity = yeast start codon fidelity modulation | S. cerevisiae UUG-firefly luciferase reporter, luminescence/redox ratio | activity score, % at 18.7 µM | 0.13% of 350,000 active | AID 602363;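 active means replicate mean at a twofold rise or more, about +100% in these data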;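 further: firefly luciferase made from a UUG start codon reports start codon fidelity; reporter light over untreated wells divided by growth signal over untreated wells; some hits fall short of that in this replicate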
ASAP1 GAP inh = blocks human ASAP1-stimulated Arf1 GTP hydrolysis | Q9ULH1 | GDP FP detection | inhibition, % at 16.5 µM | 360,000 tested, 0.19% active; in the data active means inhibition above about 25%;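 further: 0% = vehicle with enzyme and substrate and 100% = no enzyme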
MC4R barr agon = activates human MC4R beta-arrestin recruitment; 360,000 tested, 0.98% active; U2OS MC4R beta-arrestin complementation, luminescence; percent of melanotan II response, DMSO zero; P32245; activation, % at 8.9 µM;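 active means activation above a per-plate cutoff, the mean activation of sample wells on that plate plus 3 SD, cut at about 8% in these data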
An asterisk follows results filed as active; x = no result given.

Below each compound: MC4R antag cAMP	NRP1-CendR mod	ARFGAP1 inh	UUG fidelity	ASAP1 GAP inh	MC4R barr agon
1	Clc1ccccc1OCc1nn[nH]n1
  -4	30*	-2	x	1	-2
2	Cn1c(SCc2nc3ccccc3s2)nnc1-c1cccs1
  2	44*	17	-11	1	1
3	CCn1c(SCc2nc3ccccc3s2)nnc1-c1cccs1
  -2	-37	3	-20	9	1
4	CNC(=O)C[C@@H]1CC[C@@H]2[C@H](COc3ccc(NC(=O)Nc4cccc(C)c4)cc3C(=O)N2C)O1
  x	x	x	9	x	x
5	O=C(C[C@H]1CC[C@H]2[C@@H](COC[C@H](O)CN2Cc2ccc(Cl)cc2)O1)NCCc1ccccc1
  x	x	x	-20	x	x
6	CC1=[N+](C)N(c2ccccc2)C(=O)C1N=Cc1ccccc1Cl (centres undefined)
  0	18*	0	-11	4	0
7	CCC(=O)OCC(=O)N=c1sccn1Cc1ccccc1Cl
  13	26*	2	-2	-8	-1
8	O=C(CCl)N=c1sccn1Cc1ccccc1Cl
  8	-7	-3	-32	-8	24*
9	CCC(=O)OCC(=O)N=c1sccn1Cc1ccc(C)cc1
  0	6	-12	-29	6	-2
10	O=C(CCl)N=c1sccn1Cc1ccc(Cl)cc1Cl
  21	-8	5	x	-8	12*
11	Cc1noc(C)c1NC(=O)Nc1ccc2c(c1)C(=O)N([C@H](C)CO)C[C@H](C)[C@@H](CN(C)Cc1ccc3c(c1)OCO3)O2
  x	x	x	-12	x	x
12	O=C(NCC[C@H]1CC[C@@H](NC(=O)C2CC2)[C@H](CO)O1)c1cc(Cl)cc(Cl)c1
  x	x	x	7	x	x
13	CN1C(=O)c2cc(NC(=O)NC3CCCC3)ccc2OC[C@H]2O[C@H](CC(=O)O)CC[C@H]21
  x	x	x	3	x	x
14	COCC(=O)N1C[C@H](C)[C@H](OC)CN(C)C(=O)c2cc(NS(C)(=O)=O)ccc2OC[C@H]1C
  x	x	x	-12	x	x
15	COc1ccccc1NS(=O)(=O)c1cc(NC(C)=O)ccc1N1CCCCC1
  -5	6	-1	-5	9	2
16	CCOC(=O)C(=CNc1ccc(N2CCCCC2)c(S(=O)(=O)Nc2ccccc2OC)c1)C(=O)OCC
  0	36*	1	-10	6	-2
17	Cc1cc(-c2nnc3n2N=C(c2ccc(-c4ccccc4)cc2)CS3)n[nH]1
  13	-6	20	-18	10	9.3*
18	O=C(O)c1ccc(-c2nc(-c3ccc(Cl)cc3Cl)cs2)cc1
  -1	3	-1	555*	-13	1
19	CC(=O)Nc1ccccc1C(=O)C(=O)O
  10	26*	-9	0	7	1
20	Cc1ccccc1C(c1ncccc1C)N(C)C(=O)C1CCN(CCOc2ccc(Cl)cc2Cl)CC1 (centres undefined)
  -11	-8	20	-5	2	9.2*
21	COc1ccc(OCCN2CCC(C(=O)NC(c3ccc(Cl)cc3)c3ncccc3C)CC2)cc1 (centres undefined)
  10	-6	x	-1	x	0
22	COCCN(C(=S)Nc1ccccc1C)C(C)c1cccs1 (centres undefined)
  13	26*	-2	-12	2	0
23	COCCN(C(=S)Nc1ccc(C)cc1C)C(C)c1cccs1 (centres undefined)
  3	-3	-1	x	5	2
24	COc1ccccc1C(=O)NN(C)C1=NS(=O)(=O)c2ccccc21
  8	20*	-4	3	-3	0
25	Cc1oc(-c2ccc(Cl)cc2)cc1C(=O)O
  -1	44*	8	x	0	0
26	Fc1ccccc1C(c1nnnn1C1CCCC1)N1CCN(Cc2ccccc2)CC1 (centres undefined)
  -1	22*	-7	-12	10	-2
27	O=C(C[C@@H]1CC[C@H]2[C@@H](COC[C@@H](O)CN2S(=O)(=O)c2ccccc2Cl)O1)NCc1ccccc1Cl
  x	x	x	15	x	x
28	CNC(=O)C[C@@H]1CC[C@@H]2[C@H](COC[C@H](O)CN2S(=O)(=O)c2ccccc2Cl)O1
  x	32*	-2	x	-10	x
29	CO[C@@H]1CN(C)C(=O)c2ccc(NS(=O)(=O)c3ccc(Cl)cc3)cc2OC[C@H](C)N(C)C[C@H]1C
  x	x	x	1	x	x
30	Cc1ccc(/C=N\NC(=O)c2cc(OCC(F)(F)F)ccc2OCC(F)(F)F)cc1
  -2	-6	11	-21	-1	14*
31	O=C(N/N=C\c1ccc(F)cc1)c1cc(OCC(F)(F)F)ccc1OCC(F)(F)F
  -1	4	4	-20	5	-1
32	O=C(c1ccc(C#Cc2ccccc2)o1)N1CCN(c2ccccn2)CC1
  0	40*	-1	x	4	0
33	CC(=O)N(C)C[C@H]1Oc2ncc(C#Cc3ccccn3)cc2C(=O)N([C@@H](C)CO)C[C@@H]1C
  x	x	x	9	x	x
34	COc1ccc(NC(C)C(=O)N/N=C/c2ccccc2OCc2ccc(Br)cc2)cc1 (centres undefined)
  5	22*	7	-27	4	0
35	CCOC(=O)c1nn(-c2ccccc2)c(C#N)c1N
  -3	39*	-6	x	-4	2
36	CCOC(=O)c1nn(-c2ccccc2)c(=O)c(C#N)c1C
  2	6	-18	-16	3	-1
37	O=C(Nc1nnc(CCN2CCOCC2)s1)C1CCCCC1
  2	37*	5	1	3	1
38	COc1cccc(N(C(=O)c2cnccn2)C(C(=O)NC2CCCCC2)c2ccc(Cl)cc2)c1 (centres undefined)
  3	2	16	-15	6	-1
39	COc1ccc(C(C(=O)NC2CCCCC2)N(C(=O)CCl)c2cccc(Cl)c2)cc1 (centres undefined)
  1	-4	-9	-3	3	25*
40	COc1ccc(C(C(=O)NC2CCCCC2)N(C(=O)CCl)c2ccc(C)cc2)cc1 (centres undefined)
  6	-9	8	x	-19	18*
41	COc1ccc(C(C(=O)NC2CCCCC2)N(C(=O)CCl)c2ccc(OC)cc2)cc1 (centres undefined)
  7	8	x	0	x	1
42	C[C@@H]1CN([C@@H](C)CO)C(=O)c2cc(NS(=O)(=O)c3ccccc3)ccc2O[C@@H]1CN(C)CC1CC1
  x	x	x	0	x	x
43	CCCNC(=O)N1C[C@H]2[C@@H](c3ccccc31)[C@@H](CO)N2Cc1ccc(OC)cc1
  x	x	x	6	x	x
44	O=C(c1ccc(S(=O)(=O)N2CCCC2)cc1)N1CCCCC1
  13	-4	10	x	-8	-4
45	O=C(/C=C/c1ccc(O)c(O)c1)c1ccc(S(=O)(=O)N2CCCCCC2)cc1
  4	22*	-2	-2	3	-4

Record cards, from the list above.
COc1ccc(C(C(=O)NC2CCCCC2)N(C(=O)CCl)c2cccc(Cl)c2)cc1 (centres undefined) across the screens: MC4R antag cAMP = 1; NRP1-CendR mod = -4; ARFGAP1 inh = -9; UUG fidelity = -3; ASAP1 GAP inh = 3; MC4R barr agon = 25*
C[C@@H]1CN([C@@H](C)CO)C(=O)c2cc(NS(=O)(=O)c3ccccc3)ccc2O[C@@H]1CN(C)CC1CC1 across the screens: MC4R antag cAMP = x; NRP1-CendR mod = x; ARFGAP1 inh = x; UUG fidelity = 0; ASAP1 GAP inh = x; MC4R barr agon = x

Filtered by structure, the entries above containing an aryl thioether with sulfur outside any ring
Below each compound: MC4R antag cAMP	NRP1-CendR mod	ARFGAP1 inh	UUG fidelity	ASAP1 GAP inh	MC4R barr agon
2	Cn1c(SCc2nc3ccccc3s2)nnc1-c1cccs1
  2	44*	17	-11	1	1
3	CCn1c(SCc2nc3ccccc3s2)nnc1-c1cccs1
  -2	-37	3	-20	9	1
